Read-outs that look alike come from different tables or passages of the source. Some results are limits rather than exact numbers.

Amino acid sequences for entries named in this document (tags omitted). Residues count along the entry.
UniProt P02768, 25-609: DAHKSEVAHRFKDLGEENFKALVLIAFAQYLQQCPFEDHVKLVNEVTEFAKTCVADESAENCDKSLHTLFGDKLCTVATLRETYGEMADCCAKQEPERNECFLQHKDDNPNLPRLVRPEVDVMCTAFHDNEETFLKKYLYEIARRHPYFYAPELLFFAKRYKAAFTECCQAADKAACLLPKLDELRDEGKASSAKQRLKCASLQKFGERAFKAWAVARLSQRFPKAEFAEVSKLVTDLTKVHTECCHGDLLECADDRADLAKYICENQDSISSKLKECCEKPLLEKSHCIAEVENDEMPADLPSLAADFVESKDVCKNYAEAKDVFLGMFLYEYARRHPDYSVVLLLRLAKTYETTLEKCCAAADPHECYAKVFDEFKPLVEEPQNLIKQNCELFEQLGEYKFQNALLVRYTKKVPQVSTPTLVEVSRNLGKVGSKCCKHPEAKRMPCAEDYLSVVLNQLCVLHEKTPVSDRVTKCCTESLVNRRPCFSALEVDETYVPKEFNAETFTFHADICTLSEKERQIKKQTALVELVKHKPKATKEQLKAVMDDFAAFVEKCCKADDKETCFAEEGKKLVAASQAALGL
UniProt Q28522, 17-600: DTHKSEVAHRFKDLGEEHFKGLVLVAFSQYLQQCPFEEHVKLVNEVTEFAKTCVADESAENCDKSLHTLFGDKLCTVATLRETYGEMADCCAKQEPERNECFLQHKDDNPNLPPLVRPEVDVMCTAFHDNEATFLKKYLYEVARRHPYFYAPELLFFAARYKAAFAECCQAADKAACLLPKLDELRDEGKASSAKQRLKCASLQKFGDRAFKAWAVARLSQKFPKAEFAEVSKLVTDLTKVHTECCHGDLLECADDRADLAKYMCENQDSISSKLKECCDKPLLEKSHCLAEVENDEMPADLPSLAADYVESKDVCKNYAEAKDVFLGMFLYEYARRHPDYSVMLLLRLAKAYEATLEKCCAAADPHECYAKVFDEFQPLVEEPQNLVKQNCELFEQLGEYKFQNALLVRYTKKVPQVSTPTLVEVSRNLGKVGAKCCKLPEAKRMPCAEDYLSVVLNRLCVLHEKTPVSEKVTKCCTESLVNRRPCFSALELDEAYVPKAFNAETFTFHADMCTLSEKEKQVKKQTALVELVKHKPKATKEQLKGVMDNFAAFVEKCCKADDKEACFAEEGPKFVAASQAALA
UniProt P02769, 25-607: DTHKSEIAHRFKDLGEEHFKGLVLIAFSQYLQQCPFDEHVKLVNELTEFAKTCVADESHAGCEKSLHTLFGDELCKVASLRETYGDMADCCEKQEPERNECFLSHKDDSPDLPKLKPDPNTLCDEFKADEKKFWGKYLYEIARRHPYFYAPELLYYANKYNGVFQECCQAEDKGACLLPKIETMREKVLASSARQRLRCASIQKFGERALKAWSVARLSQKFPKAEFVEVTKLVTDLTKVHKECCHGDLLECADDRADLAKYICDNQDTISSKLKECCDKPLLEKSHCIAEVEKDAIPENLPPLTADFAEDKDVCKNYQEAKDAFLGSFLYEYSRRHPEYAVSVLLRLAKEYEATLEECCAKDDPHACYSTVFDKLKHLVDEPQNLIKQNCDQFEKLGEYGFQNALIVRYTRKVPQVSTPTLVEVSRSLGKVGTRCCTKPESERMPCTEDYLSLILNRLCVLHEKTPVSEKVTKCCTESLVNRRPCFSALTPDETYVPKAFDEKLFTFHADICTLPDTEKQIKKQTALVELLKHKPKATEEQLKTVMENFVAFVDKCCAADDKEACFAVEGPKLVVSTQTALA
UniProt A0A452F7K4, 1-607: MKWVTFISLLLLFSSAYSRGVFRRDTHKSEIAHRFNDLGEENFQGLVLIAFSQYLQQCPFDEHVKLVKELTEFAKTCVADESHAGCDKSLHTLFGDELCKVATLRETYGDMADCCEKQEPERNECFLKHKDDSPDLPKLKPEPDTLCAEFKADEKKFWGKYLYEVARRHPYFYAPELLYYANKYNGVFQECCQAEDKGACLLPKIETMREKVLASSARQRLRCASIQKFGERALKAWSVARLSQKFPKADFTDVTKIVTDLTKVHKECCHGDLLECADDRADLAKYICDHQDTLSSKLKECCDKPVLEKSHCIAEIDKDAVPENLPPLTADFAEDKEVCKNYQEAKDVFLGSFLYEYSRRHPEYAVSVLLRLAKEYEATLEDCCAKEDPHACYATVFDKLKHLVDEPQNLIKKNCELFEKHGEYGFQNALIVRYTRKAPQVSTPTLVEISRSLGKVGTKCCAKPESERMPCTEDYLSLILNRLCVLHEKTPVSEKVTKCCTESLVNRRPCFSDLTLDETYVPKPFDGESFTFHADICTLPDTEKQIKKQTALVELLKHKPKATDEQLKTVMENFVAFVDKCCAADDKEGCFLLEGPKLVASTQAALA
UniProt P08835, 25-607: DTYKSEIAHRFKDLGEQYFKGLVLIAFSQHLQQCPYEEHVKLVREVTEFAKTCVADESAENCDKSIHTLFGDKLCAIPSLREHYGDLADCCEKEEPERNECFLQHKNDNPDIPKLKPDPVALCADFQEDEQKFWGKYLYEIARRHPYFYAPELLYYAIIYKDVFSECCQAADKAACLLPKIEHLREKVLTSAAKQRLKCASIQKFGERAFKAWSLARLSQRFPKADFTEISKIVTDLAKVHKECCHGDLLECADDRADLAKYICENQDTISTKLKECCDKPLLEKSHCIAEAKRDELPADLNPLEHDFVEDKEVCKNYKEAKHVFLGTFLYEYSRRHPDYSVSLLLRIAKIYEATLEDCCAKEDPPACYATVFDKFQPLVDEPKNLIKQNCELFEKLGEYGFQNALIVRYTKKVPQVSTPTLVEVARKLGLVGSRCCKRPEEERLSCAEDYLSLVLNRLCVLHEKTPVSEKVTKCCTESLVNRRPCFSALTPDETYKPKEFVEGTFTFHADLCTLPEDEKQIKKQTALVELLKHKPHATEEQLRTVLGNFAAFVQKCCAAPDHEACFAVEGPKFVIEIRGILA
UniProt P49065, 25-608: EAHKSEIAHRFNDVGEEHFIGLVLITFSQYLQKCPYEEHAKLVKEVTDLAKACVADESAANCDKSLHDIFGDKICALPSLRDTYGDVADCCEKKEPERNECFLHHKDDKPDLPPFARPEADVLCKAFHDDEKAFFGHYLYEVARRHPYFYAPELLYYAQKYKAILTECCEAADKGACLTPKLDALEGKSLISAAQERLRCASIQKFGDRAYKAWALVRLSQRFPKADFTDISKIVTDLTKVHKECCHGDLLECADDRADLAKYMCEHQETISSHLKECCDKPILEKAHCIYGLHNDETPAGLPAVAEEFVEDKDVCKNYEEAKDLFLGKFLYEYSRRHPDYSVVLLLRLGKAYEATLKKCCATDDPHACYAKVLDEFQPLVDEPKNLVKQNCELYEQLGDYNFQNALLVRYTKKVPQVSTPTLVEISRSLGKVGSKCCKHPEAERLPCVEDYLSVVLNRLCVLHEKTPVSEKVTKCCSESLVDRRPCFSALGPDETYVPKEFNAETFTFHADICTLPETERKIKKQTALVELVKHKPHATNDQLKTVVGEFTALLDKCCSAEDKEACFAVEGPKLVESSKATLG
UniProt P02770, 25-608: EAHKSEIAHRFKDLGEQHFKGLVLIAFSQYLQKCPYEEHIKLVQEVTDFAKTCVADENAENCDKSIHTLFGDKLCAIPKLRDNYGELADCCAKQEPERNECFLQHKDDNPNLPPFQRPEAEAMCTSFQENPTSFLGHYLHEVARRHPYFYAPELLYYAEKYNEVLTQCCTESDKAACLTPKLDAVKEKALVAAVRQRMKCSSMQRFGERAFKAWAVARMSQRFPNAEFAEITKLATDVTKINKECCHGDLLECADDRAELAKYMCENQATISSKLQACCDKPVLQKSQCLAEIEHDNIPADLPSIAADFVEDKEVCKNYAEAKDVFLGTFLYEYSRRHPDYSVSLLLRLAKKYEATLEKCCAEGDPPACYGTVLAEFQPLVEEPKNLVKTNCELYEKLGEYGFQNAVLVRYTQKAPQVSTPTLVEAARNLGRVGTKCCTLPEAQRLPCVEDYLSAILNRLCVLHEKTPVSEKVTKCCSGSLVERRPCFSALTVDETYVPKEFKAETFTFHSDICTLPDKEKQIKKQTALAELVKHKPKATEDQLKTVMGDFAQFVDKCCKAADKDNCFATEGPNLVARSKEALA

From patent US7211395B2, “Serum albumin binding moieties” (Dyax Corp., priority 2001, dated 2007) come the findings set out here.

The target in assay [1] is T1, human serum albumin (HSA) (Homo sapiens, UniProt P02768).
T1 construct: purchased ICN
Description: Fluorescence anisotropy, direct binding of fluorescein-labeled peptide to HSA. The procedure: (§1) Affinity determinations were made by first labeling polypeptides on the C-terminal end with NHS-fluorescein. Fluorescence anisotropy measurements were performed in 384-well microplates in a volume of 10 μl in binding buffer using a Tecan Polarion fluorescence polarization plate reader. The concentration of fluorescein labeled peptide was held constant (20 nM), and the concentration of HSA was varied. For pH 6.2, 7.1, and 7.4 binding conditions, a 3 mM phosphate, 0.01% TWEEN-20® buffer was used. For pH 9.1 binding conditions, a 3 mM sodium bicarbonate buffer, 0.01% TWEEN-20® nonionic detergent buffer was used. Once NaCi was added to any of these buffers, their pH was adjusted again to achieve the original pH. The binding mixtures were equilibrated for 10 minutes in the microplate at […] prior to performing the measurement. The observed change in anisotropy was fit to the equation below via nonlinear regression to obtain the apparent KD. This equation assumes that the peptide and HSA form a reversible complex with 1:1 stoichiometry.
(Fluorescence polarisation rises when a labelled molecule tumbles more slowly, as on binding a larger partner.)

The target of assay [2] is T2, Rhesus albumin (Macaca mulatta, UniProt Q28522).
T2 construct: All other mammalian albumins were purchased as Fraction V purified material from Sigma Chemical Company; purchased Sigma Chemical Company
Description: Fluorescence anisotropy, panel of mammalian albumins: Rhesus. The assay is classed as binding. The procedure: as §1
(§2) [formula] where robs is the observed anisotropy, rfree is the anisotropy of the free peptide, rbound is the anisotropy of the bound peptide, KD is the apparent dissociation constant, HSA is the total HSA concentration, and P is the total fluorescein-labeled peptide concentration.

Assay [3] addresses T3, bovine serum albumin (BSA) (Bos taurus, UniProt P02769).
T3 construct: All other mammalian albumins were purchased as Fraction V purified material from Sigma Chemical Company; purchased Sigma Chemical Company
The experiment in a line: Fluorescence anisotropy, panel of mammalian albumins: Bovine. The assay is classed as binding. The procedure:
as §1, §2

Assay [4] concerns the target goat serum albumin (GSA) (Capra hircus, UniProt A0A452F7K4). Description: Fluorescence anisotropy, panel of mammalian albumins: Goat. It is filed as binding. The procedure: as §1, §2
In assay [5] the target is T4, Pig albumin (Sus scrofa, UniProt P08835).
T4 construct: All other mammalian albumins were purchased as Fraction V purified material from Sigma Chemical Company; purchased Sigma Chemical Company
Description: Fluorescence anisotropy, panel of mammalian albumins: Pig. The assay is classed as binding. On the procedure:
as §1, §2

Assay [6] concerns the target T5, Rabbit albumin (Oryctolagus cuniculus, UniProt P49065).
T5 construct: All other mammalian albumins were purchased as Fraction V purified material from Sigma Chemical Company; purchased Sigma Chemical Company
Description: Fluorescence anisotropy, panel of mammalian albumins: Rabbit. It is filed as binding. The procedure:
as §1, §2

Assay [7] deals with T6, Rat albumin (Rattus norvegicus, UniProt P02770).
T6 construct: All other mammalian albumins were purchased as Fraction V purified material from Sigma Chemical Company; purchased Sigma Chemical Company
Description: Fluorescence anisotropy, panel of mammalian albumins: Rat. It is filed as binding. On the procedure: as §1, §2

For assay [8], the target named is T7, chicken ovalbumin (Gallus gallus, UniProt P01012).
T7 sequence (P01012 1-386): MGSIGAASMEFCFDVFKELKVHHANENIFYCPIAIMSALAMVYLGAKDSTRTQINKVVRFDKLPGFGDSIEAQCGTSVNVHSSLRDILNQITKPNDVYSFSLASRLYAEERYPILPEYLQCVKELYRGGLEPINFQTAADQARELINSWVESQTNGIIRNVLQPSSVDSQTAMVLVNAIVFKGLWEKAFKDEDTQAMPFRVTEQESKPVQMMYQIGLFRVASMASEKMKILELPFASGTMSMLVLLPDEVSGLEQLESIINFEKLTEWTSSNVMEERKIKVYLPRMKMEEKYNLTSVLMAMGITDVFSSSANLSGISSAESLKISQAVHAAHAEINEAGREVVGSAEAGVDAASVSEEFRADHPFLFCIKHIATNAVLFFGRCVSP
The experiment in a line: Fluorescence anisotropy, negative control chicken ovalbumin. The assay is classed as binding. Conditions: Chicken (egg) ovalbumin.

Where [9] appears, read: pH 6.2, NaCl ([…]) +, caprylate (0.1%) −.
Where [10] appears, read: read-out: KD for Truncated Peptides of DX-236, buffer not stated in Table 2.
Where [11] appears, read: pH 7.4, NaCl ([…]) +, caprylate (0.1%) −.

For “Ac-AEGTGAFWFCDRIAWYPQHLCEFLDPEGGGK-NH2 [SEQ ID NO: 129]”, in assay [1] (alanine mutants of DX-236, 3 mM phosphate buffer, pH 6.2, no salt), the “KD pH 6.2” value is given as 5.1 μM.

For the substance “Ac-AEGTGSVAWCTIFLCLDVAPEGGGK—NH2 [DX-232]”, the “Dissociation Constants of HSA Binding Peptides” value (from here on “Dissociation Constants”) in assay [1] (setting [9]) is 0.5 µM. In addition, in assay [1] (read-out: Dissociation Constants of HSA Binding Peptides, pH 7.4, NaCl ([…]) +, caprylate (0.1%) +), the Kd was under 10 µM.

As to “Ac-AEGTGDPWFCDRIAWYPQHLCEFLGGGK—NH2 [SEQ ID NO: 41]”, the Kd in assay [1] (setting [10]) worked out at 9.9 µM.

Take “Ac-AEGTGDFWFCDRIAWYPQHLCEFLDPEGGGK—NH2 [DX-236]”: the “KD PBS” value in assay [1] (alanine mutants of DX-236, PBS) amounted to 35.0 µM. In assay [1] (setting [11]), the “Dissociation Constants” value came out at 11 µM. The Kd was about 8.7 µM in assay [1] (read-out: Dissociation Constants of HSA Binding Peptides, pH 6.2, NaCl ([…]) +, caprylate (0.1%) −); 1.9 µM in assay [1] (setting [10]); 23 µM in assay [2] (PBS, pH 7.4, […] NaCl); 1.1 µM in assay [2] (phosphate, pH 6.2, 0 M NaCl); 13.3 µM in assay [3] (PBS, pH 7.4, […] NaCl); 1.1 µM in assay [3] (phosphate, pH 6.2, 0 M NaCl). Besides, the Kd in assay [4] (PBS, pH 7.4, […] NaCl) worked out at 23 µM; in assay [4] (phosphate, pH 6.2, 0 M NaCl) it was 1.6 µM; in assay [5] (PBS, pH 7.4, […] NaCl), 12 µM; in assay [5] (phosphate, pH 6.2, 0 M NaCl) it was 0.5 µM; in assay [6] (PBS, pH 7.4, […] NaCl), 18 µM; in assay [6] (phosphate, pH 6.2, 0 M NaCl) it was 0.5 µM. Also, the Kd in assay [7] (PBS, pH 7.4, […] NaCl) is 25 µM; in assay [7] (phosphate, pH 6.2, 0 M NaCl), 1.6 µM; in assay [8] (PBS, pH 7.4, […] NaCl) it was over 200 µM; in assay [8] (phosphate, pH 6.2, 0 M NaCl) it was over 200 µM.

Regarding “Ac-AEGTGDDWQCVKDWANRRRGCMA-DDPE-X-K—NH2 [DX-319]”, the “Dissociation Constants” value in assay [1] (setting [9]) and in assay [1] (setting [11]) was over 200 µM each time.

As to Ac-CDRIAWYPQHLCGGGK—NH2 [SEQ ID NO: 43], the Kd in assay [1] (setting [10]) worked out at 16 µM.

“Ac-AEGTGSWKVCDHFFCLSPAPE-X-K—NH2 [DX-297]”: the “Dissociation Constants” value in assay [1] (pH 6.2, NaCl ([…]) −, caprylate (0.1%) −) is 18 µM; in assay [1] (pH 7.4, NaCl ([…]) +, caprylate (0.1%) +), over 200 µM.
